Legend:
[1] = target: T1, Glucocorticoid receptor (Homo sapiens, UniProt P04150); assay: The effective concentration in CV-1 cells for glucocorticoid response element activation (GRE).; assay type: functional, cell-based
T1 sequence (P04150 whole entry): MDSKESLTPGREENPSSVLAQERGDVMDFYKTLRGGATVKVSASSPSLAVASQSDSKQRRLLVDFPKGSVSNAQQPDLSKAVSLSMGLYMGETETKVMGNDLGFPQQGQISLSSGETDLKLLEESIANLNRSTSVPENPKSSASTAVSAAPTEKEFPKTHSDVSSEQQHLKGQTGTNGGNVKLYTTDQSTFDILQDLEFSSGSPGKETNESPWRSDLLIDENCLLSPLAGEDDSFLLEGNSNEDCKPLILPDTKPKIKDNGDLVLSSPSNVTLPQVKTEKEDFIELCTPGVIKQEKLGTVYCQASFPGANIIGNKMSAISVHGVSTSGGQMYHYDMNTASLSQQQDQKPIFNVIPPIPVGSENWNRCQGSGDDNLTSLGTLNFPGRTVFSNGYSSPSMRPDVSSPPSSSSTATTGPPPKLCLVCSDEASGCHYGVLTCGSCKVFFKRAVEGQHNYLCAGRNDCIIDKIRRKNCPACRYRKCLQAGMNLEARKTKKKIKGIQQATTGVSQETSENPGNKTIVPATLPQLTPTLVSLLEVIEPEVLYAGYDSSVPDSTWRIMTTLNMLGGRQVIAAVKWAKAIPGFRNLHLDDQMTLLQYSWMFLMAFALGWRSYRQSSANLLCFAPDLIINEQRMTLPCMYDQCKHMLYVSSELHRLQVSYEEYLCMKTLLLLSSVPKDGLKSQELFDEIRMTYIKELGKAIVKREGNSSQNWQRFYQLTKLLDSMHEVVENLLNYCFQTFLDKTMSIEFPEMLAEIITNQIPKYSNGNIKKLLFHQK

[2] = target: T1, Glucocorticoid receptor; assay: Effective concentration in HepG2 cells transfected with LUC gene (E-sel-Luc).; assay type: functional, cell-based

| Structure (SMILES) | EC50 [1] | EC50 [2] |
| --- | --- | --- |
| CCOC(=O)C1Oc2cccc(OC)c2-c2ccc3c(c21)C(C)=CC(C)(C)N3 (stereo not given) | 320 nM | 126 nM |
| COc1cccc2c1-c1ccc3c(c1C(CCO)O2)C(C)=CC(C)(C)N3 (stereo not given) | > 5000 nM | > 5000 nM |
| CCCCC1Oc2cccc(OC)c2-c2ccc3c(c21)C(C)=CC(C)(C)N3 (stereo not given) | 405 nM | 122 nM |
| COc1cccc2c1-c1ccc3c(c1C(CCN(C)C)O2)C(C)=CC(C)(C)N3 (stereo not given) | 520 nM | 306 nM |
| COc1cccc2c1-c1ccc3c(c1C(C)O2)C(C)=CC(C)(C)N3 (stereo not given) | > 5000 nM | 15 nM |
